# In article PMC10584170, “Machine learning-based phenotypic imaging to characterise the targetable biology of Plasmodium falciparum male gametocytes for the development of transmission-blocking antimalarials” (PLOS Pathogens, 2023):
# Key:
# [1] = system: P. falciparum male gametocytes; experiment: P. falciparum Dual Gamete Formation Assay (PfDGFA), male readout (exflagellation); type: cell-based, Plasmodium falciparum NF54
# Method: (§1) P. falciparum NF54 (originally isolated from an imported malaria case in the Netherlands in the 1980s; BEI Resources, cat. No. MRA-1000) strain asexual parasites were maintained between 0.3–5% parasitaemia by regular passage in complete culture medium (RPMI supplemented with 25 mM HEPES, 50 μg ml^−1 hypoxanthine, 4.8 g l^−1 NaHCO3, 2mM L-glutamine, 5% pooled type AB serum, 0.5% Albumax II (Gibco)) at 4% haematocrit in washed whole blood (National Blood and Transfusion Service or Centro de Transfusiones de la Comunidad de Madrid CTCM) under a 1% O2/3% CO2/96% N2 environment. […] On Day 14, the maturity of gametocytes was assessed by quantifying male gametogenesis (exflagellation). […] After 20 min at room temperature, exflagellation was accurately quantified as described in Delves et al. 2016 [17].
# (§2) The Pf DGFA was performed as described in Delves et al. 2016 [17]. […] Exflagellation was recorded by capturing 10 frames over 1 s under brightfield illumination using a x4 objective with a 1.5x zoom (effectively x6) attached to an automated Nikon Ti fluorescence microscope. […] The plates were then returned to the microscope and female gametes imaged at x6 using fluorescence microscopy.
# (§3) Exflagellation centres and female gametes were quantified using custom image analysis pipelines developed within ICY Bioimage Analysis (https://icy.bioimageanalysis.org/).
# [2] = system: P. falciparum female gametocytes; experiment: P. falciparum Dual Gamete Formation Assay (PfDGFA), female readout (Pfs25-positive female gametes); type: cell-based, Plasmodium falciparum NF54
# Method: as §1, §2, §3
# [3] = system: P. berghei ookinete development; experiment: P. berghei Ookinete Development Assay (PbODA); type: cell-based, Plasmodium berghei; settings: Mean TOX HepG2 over Pb ODA value; GREEN = >10-fold; RED = <10-fold
# From the text: (§4) Fig 1 The activity of TCAMS compound identified in the Pf DGFA screen. (A) 85 molecules were confirmed active in the Pf DGFA. 58 were previously identified in one or more transmission-blocking screens. […] No molecule was identified with >4.7-fold greater activity against female gametocytes. Abbreviations (IC50 = concentration giving 50% inhibition, PbODA = P. berghei Ookinete Development Assay, PfDGFA = P. falciparum Dual Gamete Formation Assay, PfFGAA = P. falciparum Female Gametocyte Activation Assay, PfGCT = P. falciparum Gametocyte Viability ATP Assay).
# [4] = system: P. falciparum female gametocytes; experiment: P. falciparum Female Gametocyte Activation Assay (PfFGAA); type: cell-based, Plasmodium falciparum; settings: Mean TOX HepG2 over FGAA IC50; GREEN = >10-fold; RED = <10-fold
# From the text: as §4
Compound,Selectivity Ratio M ([1]; HepG2 Tox50 versus male IC50),Selectivity ratio F ([2]; HepG2 Tox50 versus female IC50),Cytotox ratio Pf Male [1],Cytotox ratio Pf Female [2],Cytotox ratio Pb Ookinete [3],Cytotox ratio Pf FGAA [4]
CC(C)(CN)c1nc(-c2ccc(Cl)c(O)c2)c(-c2ccncc2)[nH]1.Cl [TCMDC-140369],19.28,64.42,,,,
CC(C)(CN)c1nc(-c2ccc(Cl)c(O)c2)c(-c2ccncc2)[nH]1.Cl [TC61],,,7.9,26.5,8186.9,7.6
